# Where a name gives a salt, the structure may show the parent alone.
# Amino acid sequences for entries named in this document (tags omitted). A change or cut given only in a name is not applied to a line headed by its entry. Residues count along the entry.
# UniProt P13674, 18-534: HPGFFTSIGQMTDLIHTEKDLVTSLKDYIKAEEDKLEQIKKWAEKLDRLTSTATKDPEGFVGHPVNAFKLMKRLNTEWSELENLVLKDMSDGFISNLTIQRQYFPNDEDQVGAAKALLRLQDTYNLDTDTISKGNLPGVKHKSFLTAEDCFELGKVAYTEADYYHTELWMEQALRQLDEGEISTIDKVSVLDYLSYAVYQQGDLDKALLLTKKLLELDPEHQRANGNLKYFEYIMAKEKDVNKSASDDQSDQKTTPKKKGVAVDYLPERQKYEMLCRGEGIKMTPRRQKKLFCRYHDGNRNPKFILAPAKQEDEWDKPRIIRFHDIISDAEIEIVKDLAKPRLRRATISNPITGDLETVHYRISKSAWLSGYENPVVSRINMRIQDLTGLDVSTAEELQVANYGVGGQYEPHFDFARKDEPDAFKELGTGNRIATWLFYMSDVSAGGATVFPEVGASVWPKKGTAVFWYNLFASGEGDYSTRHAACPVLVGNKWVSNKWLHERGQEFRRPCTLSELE
# UniProt Q9GZT9: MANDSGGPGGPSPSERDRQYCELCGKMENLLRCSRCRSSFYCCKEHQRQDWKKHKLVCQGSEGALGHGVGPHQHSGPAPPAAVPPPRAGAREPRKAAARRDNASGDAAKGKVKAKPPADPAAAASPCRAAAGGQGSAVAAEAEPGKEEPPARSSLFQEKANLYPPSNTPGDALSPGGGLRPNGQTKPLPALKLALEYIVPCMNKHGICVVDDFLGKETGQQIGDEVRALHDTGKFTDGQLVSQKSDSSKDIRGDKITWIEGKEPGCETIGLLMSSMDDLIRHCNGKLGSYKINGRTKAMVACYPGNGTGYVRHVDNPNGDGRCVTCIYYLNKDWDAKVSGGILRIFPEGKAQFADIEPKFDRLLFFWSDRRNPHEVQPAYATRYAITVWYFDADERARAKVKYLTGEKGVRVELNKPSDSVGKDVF
# UniProt Q9C0B1, whole entry: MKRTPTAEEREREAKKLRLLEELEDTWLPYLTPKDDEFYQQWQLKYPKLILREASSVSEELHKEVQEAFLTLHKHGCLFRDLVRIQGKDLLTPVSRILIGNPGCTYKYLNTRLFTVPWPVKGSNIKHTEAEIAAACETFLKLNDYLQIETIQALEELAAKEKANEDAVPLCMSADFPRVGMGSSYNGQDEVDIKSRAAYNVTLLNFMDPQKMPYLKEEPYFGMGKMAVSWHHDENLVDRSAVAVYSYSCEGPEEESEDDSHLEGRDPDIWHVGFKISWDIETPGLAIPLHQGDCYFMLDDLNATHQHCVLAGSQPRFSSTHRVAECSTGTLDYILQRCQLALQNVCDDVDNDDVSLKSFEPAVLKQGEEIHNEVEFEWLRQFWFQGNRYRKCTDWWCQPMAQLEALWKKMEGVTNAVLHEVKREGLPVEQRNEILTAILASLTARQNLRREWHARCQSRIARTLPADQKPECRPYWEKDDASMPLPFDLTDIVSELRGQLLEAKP
# Columns and labels:
# C17ORF101 = molecular target: T1, C17ORF101 (Homo sapiens, UniProt Q6PK18); assay: biochemical; conditions: read-out: Fold change versus DMSO control
# T1 sequence (Q6PK18 1-331 isoform Q6PK18-2): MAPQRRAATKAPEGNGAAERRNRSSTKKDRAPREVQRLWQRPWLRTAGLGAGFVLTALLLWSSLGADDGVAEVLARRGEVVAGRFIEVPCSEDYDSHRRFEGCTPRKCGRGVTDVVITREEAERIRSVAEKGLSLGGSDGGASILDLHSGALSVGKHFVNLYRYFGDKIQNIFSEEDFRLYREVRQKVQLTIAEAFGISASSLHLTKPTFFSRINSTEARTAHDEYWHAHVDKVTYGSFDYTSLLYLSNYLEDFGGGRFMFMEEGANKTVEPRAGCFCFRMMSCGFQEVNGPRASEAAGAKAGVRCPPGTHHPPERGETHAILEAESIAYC
# Protocol: (§1) Cells were harvested by centrifugation, washed once with 1 x PBS buffer (Invitrogen, #14190-094) and cell pellets were frozen in liquid nitrogen and subsequently stored at -80°C.
# (§2) Cells were homogenized in a Potter S homogenizer in lysis buffer: 50 mM Tris-HCl, 0.8% NP40, 5% glycerol, 150 mM NaCl, 1.5 mM MgCl2, 25 mM NaF, 1 mM sodium vanadate, 1 mM DTT, pH 7.5. […] The supernatant was transferred again to a fresh 50 ml falcon tube, the protein concentration was determined by a Bradford assay (BioRad) and samples containing 50 mg of protein per aliquot were prepared.
# LEPREL2 = molecular target: T2, LEPREL2 (Homo sapiens, UniProt Q8IVL6); assay: biochemical; conditions: read-out: Fold change versus DMSO control
# T2 sequence (Q8IVL6 21-736): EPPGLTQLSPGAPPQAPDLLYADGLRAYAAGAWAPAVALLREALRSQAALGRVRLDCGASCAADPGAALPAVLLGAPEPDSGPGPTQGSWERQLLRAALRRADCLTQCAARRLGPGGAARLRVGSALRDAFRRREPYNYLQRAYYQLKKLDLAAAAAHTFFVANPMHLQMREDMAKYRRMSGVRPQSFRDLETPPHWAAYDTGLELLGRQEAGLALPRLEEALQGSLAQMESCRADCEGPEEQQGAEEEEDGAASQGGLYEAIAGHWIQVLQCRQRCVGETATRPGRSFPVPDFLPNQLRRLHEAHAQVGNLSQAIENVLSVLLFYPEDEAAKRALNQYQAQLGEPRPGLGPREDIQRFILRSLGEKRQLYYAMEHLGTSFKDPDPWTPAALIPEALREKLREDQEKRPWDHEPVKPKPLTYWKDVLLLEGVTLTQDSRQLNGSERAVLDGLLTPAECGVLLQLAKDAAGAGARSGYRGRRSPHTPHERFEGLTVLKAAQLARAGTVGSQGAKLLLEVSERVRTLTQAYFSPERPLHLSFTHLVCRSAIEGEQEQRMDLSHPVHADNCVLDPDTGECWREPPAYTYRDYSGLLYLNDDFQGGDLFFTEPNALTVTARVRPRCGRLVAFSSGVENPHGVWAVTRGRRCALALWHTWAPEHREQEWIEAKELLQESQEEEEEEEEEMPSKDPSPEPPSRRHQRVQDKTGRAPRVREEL
# Protocol: as §1, §2
# P4HA1 [1] = molecular target: T3, P4HA1 (Homo sapiens, UniProt P13674); assay: biochemical; conditions: read-out: Fold change versus DMSO control
# Protocol: as §1, §2
# EGLN1 = EGLN1 (Homo sapiens, UniProt Q9GZT9); assay: Bead competition binding assay, immobilized compound A, K-562, HL-60 and Jurkat nuclear lysates; parameters: endogenous in cells; conditions: 100 µM free compound A, K-562 nuclear lysate, read-out: Fold change versus DMSO control
# Source text: (§3) K562 cells were also purchased from DSMZ (Braunschweig, Germany).
# (§4) Table 5: Peptide elution off the LC system
# (§5) Seventeen different dioxygenases were identified.
# FTO = FTO (Homo sapiens, UniProt Q9C0B1); assay: as above; parameters: endogenous in cells; conditions: 100 µM free compound A, HL-60 nuclear lysate, read-out: Fold change versus DMSO control
# Source text: as §3, §4, §5
# P4HA1 [2] = molecular target: T3, P4HA1; assay: as above; parameters: endogenous in cells; conditions: read-out: Fold change versus DMSO control
# Source text: The proteins bound to the immobilized compound were eluted with detergent-containing buffer and separated on a SDS-polyacryamide gel. […] Table 4: Compound treatment and TMT-labeling of cell samples
# Jurkat cells (ATCC number TIB-152) were either obtained from an external supplier (CIL SA, Mons, Belgium) or grown in one litre Spinner flasks (Integra Biosciences, #182101) in suspension in RPMI 1640 medium (Invitrogen, #21875-034) supplemented with 10% Fetal Bovine Serum (Invitrogen, #10270-106) at a density between 0.2 x 10^6 and 1.0 x 10^6 cells/ml. Cells were harvested by centrifugation, washed once with 1 x PBS buffer (Invitrogen, #14190-094) and cell pellets were frozen in liquid nitrogen and subsequently stored at -80°C.
# Source of HL-60 cells: HL-60 cell line (DSMZ, Braunschweig, Germany; DSMZ number ACC3). K562 cells were also purchased from DSMZ (Braunschweig, Germany).
# Extracts of nuclei were prepared according to the Dignam protocol (Dignam et al., 1983. Nucleic Acids Res. 11 (5):1475-89).
# The TMT reagents are a set of multiplexed, amine-specific, stable isotope reagents that can label peptides on amino groups in up to six different biological samples enabling simultaneous identification and quantitation of peptides. The TMT reagents were used according to instructions provided by the manufacturer. […]
smiles,measurement,setting,value
"O=C(O)CNC(=O)C1C(=O)OC2(CCNCC2)OC1=O [compound A, 2-(2,4-dioxo-1,5-dioxa-9-azaspiro[5.5]undecane-3-carboxamido)acetic acid hydrochloride]",remaining activity at 200 µM,C17ORF101,42%
same,remaining activity at 200 µM,LEPREL2,21%
same,remaining activity at 200 µM,P4HA1 [1],14%
same,remaining binding at 100 µM,EGLN1,21%
same,remaining binding at 100 µM,FTO,26%
same,remaining binding at 100 µM,P4HA1 [2],14%
